The record followed here is PubChem BioAssay AID1645870 (National Center for Advancing Translational Sciences (NCATS), 2021).

Protein sequences, listed by entry. Tags and fused reporters are not part of them. Lines headed by an entry give the natural chain unless they say otherwise; changes in a name come on top.
UniProt Q9BV86: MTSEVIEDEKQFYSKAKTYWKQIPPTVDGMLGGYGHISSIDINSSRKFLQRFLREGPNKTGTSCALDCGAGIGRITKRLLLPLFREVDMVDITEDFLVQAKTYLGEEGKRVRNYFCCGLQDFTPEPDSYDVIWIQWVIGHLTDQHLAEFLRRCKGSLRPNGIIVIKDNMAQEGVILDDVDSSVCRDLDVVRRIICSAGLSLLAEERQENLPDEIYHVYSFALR

The list shows a part of the results, in another mix than the full data. Inconclusive results are not listed. Entries that show only a call come without a potency. Activity calls are given as the source filed them. Calls follow the shape of the dose curve; as a rule, active = well fitted inhibition curve with a large enough effect; inconclusive = small, poorly fitted or top-dose-only effect; inactive = flat fitted curve, though single readings scatter.
Potency is read from the fitted curve at half-maximal effect.

For this test, the target named is N-terminal Xaa-Pro-Lys N-methyltransferase 1 (Homo sapiens) (UniProt Q9BV86). In words: Primary qHTS for Inhibitors of N-terminal methyltransferase 1 (NTMT1): MTaseGlo Assay. Also: nearly all actives have a fitted effect of over 65% in size. The note with it: NTMT1 MTase-Glo SAH luminescence, purified enzyme; series mostly up to 57.5 µM. From the text: Assay Submitter (PI): Rong Huang Ph.D.
Purdue University, West Lafayette, IN 47907
The N-terminal methytransferase 1 is the first methyltransferase that methylates protein alpha-N-amines and plays an important role in regulating cell mitosis, chromatin interactions and DNA repair. It is observed to be over-expressed in various cancer patient tissues like malignant melanoma and colorectal cancer tissues. Knockdown of NTMT1 in cancer cells causes cell mitotic defects and enhances sensitivity to DNA damaging chemotherapeutics. […] These critical cellular processes in which NTMT1 is implicated, coupled with emerging links to cellular dysfunction, strengthen the inference that NTMT1 is a compelling novel anticancer target. Progress have been made in understanding the molecular properties of NTMT1 and the biological consequences of protein alpha-N-terminal methylation, but there are no specific small molecule probes available for NTMT1 to fully characterize its MTase activity. To address this unmet need, a panel of assay is created and established to enable quantitative high-throughput screening (qHTS) for novel, potent, and selective small molecule NTMT1 inhibitors. Two orthogonal qHTS that use different reagents (ThioGlo vs. MTaseGlo) are developed for primary robotic screening against the NCATS chemical library of more than 400,000 small molecules. Identified inhibitors are reacquired, validated, and further characterized.
MTaseGlo Assay is a luminescence screen that measure the activity of methyltransferases based on the reaction product S-adenosyl homocysteine (SAH). The substrate SAM is converted to SAH upon enzyme activation. MTase-Glo reagent and detection solution convert SAH to ATP and measure the light from the luciferase reaction.
Materials: NTMT1 enzyme, substrate SPKRIA, control peptide RCC1-6 is provided by the Huang laboratory.
SEQUENCE No. (e.g., 1, 2, 3, etc.); […] (e.g., Cells, Incubation, Reagent, etc.); VALUE; DESCRIPTION
1; Enzyme; 3 uL; Dispense enzyme mixture (final concentrations of 125 nM NTMT1 and 100 uM SAM) into Greiner 1536-well white / solid bottom assay plate (Greiner Bio One, Monroe, NC).
2; Compounds; 23 nL; Compounds and controls were transferred via a Kalypsys Pin Tool (Wako USA) equipped with a 1536-slotted pin array (Wako Automation, Richmond, VA)
3; Incubation; 15 min; Incubate at room temperature
4; Substrate; 1 uL; Dispense 1 uL of substrate at final concentration of 1 uM. Buffer solution was dispensed in control wells. The assay plate was covered with metal lids.
5; Incubation; 30 min; Incubate at room temperature, protected from lights.
6; Reagent; 1 uL; Dispensed 5x MTase-Glo detection reagent (R) into the assay plate. The plate was covered with metal lids.
7; Incubation; 30 min; Incubate the assay plates at room temperature in the dark to allow for SAH to be converted to ADP.
8; Reagent; 5 uL; Dispense 5 uL of 1x MTase-Glo Detection Solution (R) to allow for ADP to be converted to ATP which was then detected with a luciferase reaction.
9; Centrifuge; 15 sec; Centrifuge the assay plate for 15 seconds at 1000 RPM.
10; Incubation; 30 min; Assay plates were incubation at room temperature in the dark.
11; Detection; Luminescence; Plates were read on ViewLux detector (PerkinElmer). Data were normalized to no-enzyme (0% activity) and no-inhibitor (DMSO; 100%) controls, and the resulting percent inhibition data were fitted to a 4-parameter Hill equation using GraphPad Prism.
(In general: In qHTS, concentration-response curves come from the screen itself.)
`CN(C(=O)Cc1ccc(Cl)c(Cl)c1)[C@H]1CCCC[C@H]1N1CCCC1`: the Potency entry is “inactive”.
The same measure for `CCNC(C)Cc1ccc2c(c1)OCO2` (centres undefined): “inactive”.
The figure for `N[C@@H](Cc1ccc([N+]([O-])(CCCl)CCCl)cc1)C(=O)O` is active: 79.4 µM; for `CN(C(=O)Cc1ccccc1)[C@H]1CC[C@@]2(CCCO2)C[C@@H]1N1CCCC1` it is “inactive”; for `CN(C)C1(c2ccccc2)CCC2(CC1)OCCc1c2[nH]c2ccc(F)cc12` (centres undefined) it is “inactive”.
The entry for `CCn1c(=O)n([C@@H]2CCN(CC3CCCCCCC3)C[C@H]2CO)c2ccccc21` is “inactive”.
On to `NC(=O)Nc1ccc([As](=O)(O)O)cc1`, for which the Potency entry was “inactive”.
Turning to `CN(C(=O)Cc1ccc(Cl)c(Cl)c1)[C@H]1CC[C@@]2(CCCO2)C[C@@H]1N1CCCC1`, the Potency entry is “inactive”.
The same measure for `CCn1c(=O)n([C@@H]2CCN(CC3CCCCCCC3)C[C@@H]2CO)c2ccccc21`: “inactive”.
